The record followed here is PubChem BioAssay (Tox21).

Each structure is given as a SMILES string. Where “and” joins values, the source holds several entries; their conditions need not be identical. Identical values can stand only once. This is a selection; strong and weak results do not stand in their true shares. Records with an inconclusive call do not appear. Calls of active or inactive are those of the source. The call rests on the fitted dose curve.
On the % scale 0 is the no-effect control and ±100 the full control effect.

The target in this test is Beta-2 adrenergic receptor (Homo sapiens) (UniProt P07550). Kind of test: Adrenergic beta2 receptor (ADRB2) small molecule antagonists, cell-based qHTS assay (AID 1963592). Further: nearly all actives have a fitted effect of over 50% in size. Particulars: CHO-ADRB2 cells, isoproterenol-stimulated cAMP HTRF ratio, 0.5 h; at 92.4 µM (top of the series) unless noted. The text has this:
U.S. Tox21 Program National Center for Advancing Translational Sciences [NCATS] Division of Preclinical Innovation [DPI] U.S. Environmental Protection Agency [EPA] National Institutes of Environmental Health Sciences [NIEHS] National Toxicology Program [NTP] U.S. Food and Drug Administration [FDA] Tox21 Assay Overview: Beta adrenergic receptors (Beta-ARs) belong to the G-protein coupled receptor (GPCR) superfamily, includes three subtypes - beta1, beta2, and beta3. Beta1-AR is the predominant receptor subtype expressed in the heart, and beta2-AR is expressed in the kidney, lung, blood vessel and in the heart, and beta3 is found in the adipocytes. Beta1 and 2 ARs couple to Gs protein and elevate cyclic adenosine mono phosphate (cAMP), which activates protein kinase A and leads to the downstream signaling responsible for the physiological actions. Beta-AR agonists or antagonists are the most prescribed therapeutic agents for heart failure and asthma, and these were one of the first target receptors for the rational drug design. Tox21 10K compound library was screened using the cAMP-Gs dynamic assay (Cisbio Bioassays, Shelton, CT) to identify agonists/antagonists of the Gs-coupled human adrenergic, beta2 receptor (ADRB2) in the CHO-ADRB2 cell line (Codex BioSolutions, Inc. Gaithersburg, MD), which stably over-expresses ADRB2. The principle of cAMP-Gs dynamic assay is based on HTRF technology, which facilitates the fluorescence resonance energy transfer (FRET) between donor Europium cryptate and acceptor d2-labeled cAMP. The cAMP generated within cells competes with the red acceptor, d2-labled cAMP, for binding to the monoclonal anti-cAMP-cryptate (Europium donor). An increase in intracellular cAMP leads to the disruption of FRET signal, and the signal is inversely proportional to the cAMP concentration. Propranolol HCl (Sigma-Aldrich, St. Louis, MO) was used as a positive control in the screening.
Tox21 Assay Protocol Summary: CHO-ADRB2 cells were dispensed at 1,000/well in 4uL assay medium into white/solid 1536-well plates (Greiner Bio-One North America Inc., Monroe, NC) using a Multidrop Combi dispenser (ThermoFisher Scientific, Waltham, MA). The assay plates were incubated at 37C and 5% CO2 for an overnight (18-20hr). Then positive control and test compounds dissolved in DMSO were transferred to the assay plates at 23nL using a Pintool station (Wako, San Diego, CA). Following the compound and positive control transfer, 1uL agonist-stimulation mix containing 1nM Isoproterenol HCl, 100uM IBMX and 25uM Ro-20-1724 was added to each well of the assay plates using BioRAPTR Flying Reagent Dispenser (FRD, Beckman Coulter, Brea, CA). The assay plates were incubated at room temperature for 0.5hr. Then 2.5ul each d2-labled cAMP and anti-cAMP-cryptate solutions were added separately to each well of the assay plates using an FRD and the assay plates were incubated at room temperature for 1hr. The fluorescence signal was measured at two different wavelengths (665nm and 615nm) using an Envision plate reader (Perkin Elmer, Shelton, CT). Data were expressed as the ratio of 665 nm/615 nm.
As to `Cc1cc([N+](=O)[O-])cc([N+](=O)[O-])c1O`, the activity change, negative = inhibition was inactive: -11.1%.
Consider `O=C(Cl)Oc1ccccc1`, for which the activity change, negative = inhibition is inactive: -1.28%.
On to `CCCCO[P+](=O)OCCCC`, for which the activity change, negative = inhibition is inactive: 1.02% and inactive: -16.4%.
For `CN(N=O)C(=N)N[N+](=O)[O-]`, the activity change, negative = inhibition was inactive: 16.3%.
For the compound `Cc1cc([N+](=O)[O-])c(O)c([N+](=O)[O-])c1`, the activity change, negative = inhibition is inactive: -0.618%.
In the case of `O=[N+]([O-])c1ccc(S(=O)(=O)O)c([N+](=O)[O-])c1`, the activity change, negative = inhibition is inactive: -0.574%.
Next, `O=P(Cl)(Cl)c1ccccc1`: inactive: -13.8%; `CN(C(=O)Cc1cccc2occc12)[C@H]1CC[C@@]2(CCCO2)C[C@@H]1N1CCCC1`: inactive: 11.2%.
The result for `CCCCOP(OCCCC)OCCCC` reads inactive: -7.6%; that for `CN(C(=O)Cc1ccc(Cl)c(Cl)c1)[C@H]1CC[C@@]2(CCCO2)C[C@@H]1N1CCCC1`, inactive: -0.347% [at 42.5 µM]; that for `CCC(C)(OOC(C)(C)C)OOC(C)(C)C`, inactive: -7.73% [at 19 µM].
Consider `CCCCC(CC)CO[P+](=O)OCC(CC)CCCC` (configuration not stated), for which the activity change, negative = inhibition was inactive: -0.274%.
The result for `O=C1C2CC=CCC2C(=O)N1SC(Cl)(Cl)C(Cl)Cl` (configuration not stated) reads inactive: -8.98%; that for `CCOC(=O)Cl`, inactive: 0.745%; that for `O=[p+]1oc2ccccc2c2ccccc21` (configuration not stated), inactive: 2.11%.
For `COP(=S)(Cl)OC`, the activity change, negative = inhibition was inactive: 6.7%.
Next, `O=P(Cl)(Oc1ccccc1)Oc1ccccc1`: inactive: -1.87%; `CCOP(=S)(CC)Sc1ccccc1` (configuration not stated): inactive: 0.963%; `COC(=O)Cl`: inactive: 0.277%.
In the case of `ClP(Cl)c1ccccc1`, the activity change, negative = inhibition is inactive: 2.78%.
Next, `CN(C(=O)Cc1ccccc1)[C@H]1CC[C@@]2(CCCO2)C[C@@H]1N1CCCC1`: inactive: 0.99% [at 42.5 µM]; `O=[P+](Oc1ccccc1)Oc1ccccc1`: inactive: 15.2%.
As to `O=C(Cl)OCCOC(=O)Cl`, the activity change, negative = inhibition was inactive: 1.31%.
In the case of `CC(C)OP(=S)(OC(C)C)SCCNS(=O)(=O)c1ccccc1`, the activity change, negative = inhibition was inactive: 8.48%.
As to `CCCCCCCCCCCCCC[P+](CCCCCC)(CCCCCC)CCCCCC`, the activity change, negative = inhibition was inactive: 0.96%.
Turning to `O=[N+]([O-])c1ccc([N+](=O)[O-])cc1`, the activity change, negative = inhibition is inactive: -1.4%.
With `CC(C)CCCCCCCOP(OCCCCCCCC(C)C)Oc1ccccc1`, the activity change, negative = inhibition was inactive: 5.43%.
